pIC50: −log10 of the molar value.
Tests used:
[1] = test system: phosphorylation of Serine 473 in Akt in MDA-MB-468 human breast adenocarcinoma cell line; test: In vitro phospho-Ser473 Akt assay, Test (c); type: cell-based; conditions: read-out: IC50 (inhibition of Serine 473 phosphorylation in Akt), MDA-MB-468 cells
p110α Type Ia human PI3K = p110α Type Ia human PI3K (Homo sapiens, UniProt P42336); test: In vitro PI3K enzyme assay (AlphaScreen), Test (a); type: biochemical; conditions: read-out: IC50 versus p110α Type Ia human PI3K

Chains of the proteins cited; added tags and fusions are not shown.
UniProt P42336, whole entry: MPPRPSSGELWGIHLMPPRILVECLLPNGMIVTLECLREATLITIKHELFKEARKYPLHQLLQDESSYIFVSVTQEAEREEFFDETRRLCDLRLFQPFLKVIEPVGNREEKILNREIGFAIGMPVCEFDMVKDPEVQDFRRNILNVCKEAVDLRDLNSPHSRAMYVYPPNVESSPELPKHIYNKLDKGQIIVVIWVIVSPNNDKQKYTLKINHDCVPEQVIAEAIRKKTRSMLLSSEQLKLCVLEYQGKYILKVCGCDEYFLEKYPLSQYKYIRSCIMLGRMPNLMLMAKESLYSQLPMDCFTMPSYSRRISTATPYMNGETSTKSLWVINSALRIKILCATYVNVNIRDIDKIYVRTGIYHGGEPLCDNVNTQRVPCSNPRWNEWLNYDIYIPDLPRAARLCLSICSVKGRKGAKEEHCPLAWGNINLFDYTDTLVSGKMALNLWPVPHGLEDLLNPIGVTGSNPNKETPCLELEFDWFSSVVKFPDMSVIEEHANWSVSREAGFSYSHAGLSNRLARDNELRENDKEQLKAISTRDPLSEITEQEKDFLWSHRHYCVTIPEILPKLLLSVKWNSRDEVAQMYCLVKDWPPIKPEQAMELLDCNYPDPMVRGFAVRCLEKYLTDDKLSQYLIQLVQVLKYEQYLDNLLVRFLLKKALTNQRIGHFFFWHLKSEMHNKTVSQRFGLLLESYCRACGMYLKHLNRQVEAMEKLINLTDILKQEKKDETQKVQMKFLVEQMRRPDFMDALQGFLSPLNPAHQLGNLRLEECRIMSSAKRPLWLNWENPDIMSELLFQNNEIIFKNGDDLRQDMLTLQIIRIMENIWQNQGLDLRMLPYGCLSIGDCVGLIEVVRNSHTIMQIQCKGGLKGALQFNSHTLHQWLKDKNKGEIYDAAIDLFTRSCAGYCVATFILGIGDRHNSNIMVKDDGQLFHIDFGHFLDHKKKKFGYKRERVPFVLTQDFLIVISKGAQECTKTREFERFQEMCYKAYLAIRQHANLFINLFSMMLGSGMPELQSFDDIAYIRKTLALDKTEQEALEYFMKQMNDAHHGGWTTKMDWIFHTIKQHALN
UniProt P27986, whole entry partner: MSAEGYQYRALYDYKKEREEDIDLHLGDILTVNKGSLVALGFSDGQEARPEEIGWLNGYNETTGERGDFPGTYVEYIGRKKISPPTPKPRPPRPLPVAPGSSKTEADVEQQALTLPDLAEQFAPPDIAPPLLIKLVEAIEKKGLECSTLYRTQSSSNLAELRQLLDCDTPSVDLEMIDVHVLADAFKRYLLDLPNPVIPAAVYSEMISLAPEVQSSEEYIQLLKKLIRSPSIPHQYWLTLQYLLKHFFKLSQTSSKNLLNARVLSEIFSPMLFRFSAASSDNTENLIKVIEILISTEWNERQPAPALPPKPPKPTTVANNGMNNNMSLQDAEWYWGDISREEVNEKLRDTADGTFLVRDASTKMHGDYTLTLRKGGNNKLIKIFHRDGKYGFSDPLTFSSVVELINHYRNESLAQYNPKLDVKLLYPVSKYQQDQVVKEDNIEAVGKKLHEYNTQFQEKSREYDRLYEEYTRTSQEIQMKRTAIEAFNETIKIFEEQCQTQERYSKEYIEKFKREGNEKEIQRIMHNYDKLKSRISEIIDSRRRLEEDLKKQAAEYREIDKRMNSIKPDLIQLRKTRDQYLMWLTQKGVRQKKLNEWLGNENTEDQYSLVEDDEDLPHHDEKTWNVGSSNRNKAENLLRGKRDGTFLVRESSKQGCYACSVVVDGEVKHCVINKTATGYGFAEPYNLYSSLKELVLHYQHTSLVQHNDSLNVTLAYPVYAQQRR

COc1cccc2c1nc(C(F)F)n2-c1nc(N2CCOCC2)cc(N2CCN(C(=O)CN)CC2)n1
pIC50 [1]: 7.22
pIC50 (p110α Type Ia human PI3K): 7.70

— US20090270390A1, “PYRIMIDINE DERIVATIVES” (AstraZeneca, priority 2006, published 2009)
